According to ChEMBL document CHEMBL1141011, “Carbonic anhydrase inhibitors: 2-substituted-1,3,4-thiadiazole-5-sulfamides act as powerful and selective inhibitors of the mitochondrial isozymes VA and VB over the cytosolic and membrane-associated carbonic anhydrases I, II and IV” (Bioorg Med Chem Lett, 2008):

Assays:
Homo sapiens [1] = organism: Homo sapiens; assay: Selectivity for full length human recombinant mitochondrial carbonic anhydrase 5A over human recombinant cytosolic carbonic anhydrase 2
Homo sapiens [2] = organism: Homo sapiens; assay: Selectivity for full length human recombinant mitochondrial carbonic anhydrase 5B over human recombinant cytosolic carbonic anhydrase 2

Compound: CC(=O)Nc1nnc(S(N)(=O)=O)s1
- Selectivity ratio (Homo sapiens [1]): 0.19
- Selectivity ratio (Homo sapiens [2]): 0.22
